Experimental data taken from PubChem BioAssay AID1875 (Broad Institute, 2009).
This is one part of the list. Some structures show a salt or complex split into parts, the way the source records it. Activity calls are given as the source filed them.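 The calls were made as follows: active = lowest replicate activity score at least 50, where 100 means six control SD above control mean; inconclusive = lowest score under 50 but half or more replicates reach 50; inactive = the rest.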

Experiment: polyadenylation inhibitors in yeast reporter cells, primary screen, luminescence, S. cerevisiae (AID 1875);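 also: yeast exposed to compound for 9 h at 30 °C; higher score means more reporter readthrough which indicates perturbed polyadenylation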
Conditions: S. cerevisiae SKY197-pL101 polyadenylation reporter, beta-gal luminescence; at 12 µM; hits give high values; efflux-impaired pdr1/pdr3 knockout yeast; score 100 = 6 SD above DMSO

**Q.** Which activity score does the source give for `COc1ccccc1OP(C)(=O)Nc1ccc(Br)cc1` (stereo not given) here?
**A.** Its activity score is inactive: -13.4%.

**Q.** Which activity score does the source give for `Cc1ccc(N/C(=N/P(=O)(N2CCOCC2)N2CCOCC2)N2CCOCC2)cc1` here?
**A.** Its activity score is inactive: -7.05%.

**Q.** For `COc1ccccc1OP(=O)(Nc1ccc(C)cn1)Oc1ccccc1OC`, which activity score is on record?
**A.** Its activity score is inactive: -23.3%.

**Q.** With `COc1ccc(OP(C)(=O)Nc2ccccn2)cc1` (stereo not given) as the compound, how does the activity score read?
**A.** The activity score was inactive: -0.0842%.

**Q.** With `Cc1ccc(OP(=O)(Nc2nccs2)Oc2ccc(C)cc2)cc1` as the compound, how does the activity score read?
**A.** The activity score was inactive: 6.54%.

**Q.** Which activity score does the source give for `CN1CCCC(OC(=O)C(c2ccccc2)c2ccccc2)C1` (stereo not given) here?
**A.** The activity score was inactive: -24.9%.

**Q.** For `CN(C)CCOC(=O)C(O)(c1ccccc1)C1CCCC1` (stereo not given), which activity score is on record?
**A.** Its activity score is inactive: -4.57%.

**Q.** With `Clc1ccc(Cl)c(NC2=NCC(CBr)S2)c1` (stereo not given) as the compound, how does the activity score read?
**A.** The activity score was inactive: -1.87%.

**Q.** Which activity score does the source give for `Nc1cc(N)c2nonc2c1[N+](=O)[O-]` here?
**A.** Its activity score is inactive: 11%.

**Q.** Which activity score does the source give for `Cc1c(NP(C)(=O)Oc2ccc(C(C)C)cc2)c(=O)n(-c2ccccc2)n1C` (stereo not given) here?
**A.** Its activity score is inactive: -0.351%.

**Q.** With `O=[N+]([O-])c1cc([N+](=O)[O-])c(Nc2ccccn2)c([N+](=O)[O-])c1` as the compound, how does the activity score read?
**A.** Its activity score is inactive: -36.4%.

**Q.** For `CC(C)CC(=O)NC(Sc1ccc(Cl)cc1)C(Cl)(Cl)Cl` (stereo not given), which activity score is on record?
**A.** The activity score was inactive: 2.27%.

**Q.** With `Oc1ccccc1CNc1ccccn1` as the compound, how does the activity score read?
**A.** Its activity score is inactive: 6.26%.

**Q.** With `O=C(NC(Sc1ccncn1)C(Cl)(Cl)Cl)c1ccccc1` (stereo not given) as the compound, how does the activity score read?
**A.** Its activity score is inactive: 8.84%.

**Q.** With `Cc1c2non([O-])c-2c(C)[n+](=O)[n+]1[O-]` as the compound, how does the activity score read?
**A.** The activity score was inactive: -17.6%.

**Q.** For `CP(=O)(Nc1ccccn1)Oc1ccccc1` (stereo not given), which activity score is on record?
**A.** Its activity score is inactive: 4.55%.

**Q.** Which activity score does the source give for `COc1ccccc1OP(C)(=O)Nc1ccc(C)cc1C` (stereo not given) here?
**A.** The activity score was inactive: -10.3%.

**Q.** With `CCc1ccc(OP(C)(=O)O)cc1` as the compound, how does the activity score read?
**A.** Its activity score is inactive: 0.113%.

**Q.** Which activity score does the source give for `O=P1(Nc2nc3ccc(Cl)cc3s2)COc2ccccc2O1` (stereo not given) here?
**A.** The activity score was inactive: -5.63%.

**Q.** For `CCOc1ccc(C2=NCC(CBr)S2)cc1` (stereo not given), which activity score is on record?
**A.** The activity score was inactive: -20%.

**Q.** Which activity score does the source give for `CP(=O)(Nc1ccccc1F)Oc1ccccc1` (stereo not given) here?
**A.** The activity score was inactive: 21.4%.

**Q.** For `CC(C)(C)C(=O)NC(Sc1ccccc1)C(Cl)(Cl)Cl` (stereo not given), which activity score is on record?
**A.** The activity score was inactive: -15.1%.

**Q.** With `CC(C)c1ccc(OP(C)(=O)Nc2ccc(SC(F)(F)F)cc2)cc1` (stereo not given) as the compound, how does the activity score read?
**A.** Its activity score is inactive: 3.12%.

**Q.** Which activity score does the source give for `CC(=O)c1ccc(N2CC2c2ccncc2)cc1` (stereo not given) here?
**A.** The activity score was inactive: -1.79%.

**Q.** For `O=C(OCCN1CCN(CCOCc2ccccc2)CC1)C(O)(c1ccccc1)c1ccccc1`, which activity score is on record?
**A.** The activity score was inactive: -4.33%.

**Q.** With `C[C@H]1OP(=O)(Oc2ccccc2)C[C@@H]2O[C@@H]21` (stereo not given in full) as the compound, how does the activity score read?
**A.** Its activity score is inactive: 0.59%.

**Q.** With `C[C@@H]1C=CCP(=O)(Oc2ccccc2)O1` (stereo not given in full) as the compound, how does the activity score read?
**A.** Its activity score is inactive: -1.18%.

**Q.** Which activity score does the source give for `CC(=O)Nc1ccc([As](=O)(O)O)c(O)c1` here?
**A.** The activity score was inactive: 21.3%.

**Q.** Which activity score does the source give for `COc1ccc2c(c1O)-c1c(O)c(OC)cc3c1[C@H](C2)[N+](C)(C)CC3.O=[N+]([O-])c1cc([N+](=O)[O-])c([O-])c([N+](=O)[O-])c1[O-]` here?
**A.** Its activity score is inactive: -0.925%.

**Q.** For `CC(=O)Nc1ccc(Oc2c([N+](=O)[O-])cc([N+](=O)[O-])cc2[N+](=O)[O-])cc1`, which activity score is on record?
**A.** Its activity score is inactive: -4.24%.

**Q.** Which activity score does the source give for `O=C(NC1CCS(=O)(=O)C1)NP(=S)(Oc1ccccc1)Oc1ccccc1` (stereo not given) here?
**A.** The activity score was inactive: -9.96%.

**Q.** Which activity score does the source give for `CCNC(=S)/N=C(\N)N[N+](=O)[O-]` here?
**A.** Its activity score is inactive: 8.35%.

**Q.** With `c1ccc(-c2nn[nH]n2)c(-c2nn[nH]n2)c1` as the compound, how does the activity score read?
**A.** Its activity score is inactive: -7.26%.

**Q.** With `Cc1ccc(NP(=O)(Oc2cccc(C)c2)Oc2cccc(C)c2)nc1` as the compound, how does the activity score read?
**A.** Its activity score is inactive: -19.5%.

**Q.** With `CCOC(=O)NC(Sc1ccccc1)C(Cl)(Cl)Cl` (stereo not given) as the compound, how does the activity score read?
**A.** The activity score was inactive: -22.7%.

**Q.** Which activity score does the source give for `CCOC(=O)c1ccc(NP(C)(=O)Oc2ccc(F)cc2)cc1` (stereo not given) here?
**A.** The activity score was inactive: 17.3%.

**Q.** With `COc1ccc(OP(C)(=O)Nc2ccc(SC(F)(F)F)cc2)cc1` (stereo not given) as the compound, how does the activity score read?
**A.** Its activity score is inactive: -2.18%.

**Q.** Which activity score does the source give for `COC(=O)c1cc2c(s1)N=C(c1ccccc1)N(C)P2(=O)N1CCOCC1` (stereo not given) here?
**A.** Its activity score is inactive: 9.59%.

**Q.** For `CC(=O)NC(SC(=S)N(CC(C)C)CC(C)C)C(Cl)(Cl)Cl` (stereo not given), which activity score is on record?
**A.** The activity score was inactive: -25.1%.

**Q.** Which activity score does the source give for `Cc1ccc(OP(=O)(Nc2ccccn2)Oc2ccc(C)cc2)cc1` here?
**A.** The activity score was inactive: -67.2%.

**Q.** For `O=C(OC1CN2CCC1CC2)c1ccccc1` (stereo not given), which activity score is on record?
**A.** Its activity score is inactive: -23.9%.

**Q.** For `CP(=O)(Nc1ccccc1)Oc1ccc(F)cc1` (stereo not given), which activity score is on record?
**A.** The activity score was inactive: -0.0114%.

**Q.** Which activity score does the source give for `Cc1ccccc1OP(=O)(Nc1ccccn1)Oc1ccccc1C` here?
**A.** The activity score was inactive: -5.09%.

**Q.** With `O=[N+]([O-])c1cc([N+](=O)[O-])c(OC2CCCCC2O)c([N+](=O)[O-])c1` (stereo not given) as the compound, how does the activity score read?
**A.** Its activity score is inactive: -13.4%.

**Q.** With `CCCCCOc1ccc(NP(C)(=O)Oc2ccc(Cl)cc2Cl)cc1` (stereo not given) as the compound, how does the activity score read?
**A.** Its activity score is inactive: -0.975%.

**Q.** For `CN(C)C(=O)Oc1noc2ccccc12`, which activity score is on record?
**A.** Its activity score is inactive: 14.5%.

**Q.** With `COc1ccc(OP(C)(=O)Nc2cccc(Br)c2)cc1` (stereo not given) as the compound, how does the activity score read?
**A.** Its activity score is inactive: 8.22%.

**Q.** For `CN(C)C1(CNC(=O)c2ccc(Cl)c(S(N)(=O)=O)c2)CCCCC1`, which activity score is on record?
**A.** The activity score was inactive: -15.7%.

**Q.** With `O=P(Nc1ccccn1)(c1ccc(Br)cc1)c1ccc(Br)cc1` as the compound, how does the activity score read?
**A.** The activity score was inactive: -2.9%.

**Q.** For `O=P(Nc1nc2ccccc2s1)(c1ccccc1)c1ccccc1`, which activity score is on record?
**A.** The activity score was inactive: 11.2%.

**Q.** For `CN(C)CCOC(=O)C(O)(c1ccccc1)C1CCCCC1` (stereo not given), which activity score is on record?
**A.** Its activity score is inactive: 9.17%.

**Q.** Which activity score does the source give for `C[C@H]1OP(=O)(Oc2ccccc2)[C@H](O)[C@H](O)[C@H]1N=[N+]=[N-]` (stereo not given in full) here?
**A.** Its activity score is inactive: 5.54%.

**Q.** With `COc1ccc(NP(C)(=O)Oc2ccccc2OC)cc1` (stereo not given) as the compound, how does the activity score read?
**A.** The activity score was inactive: -8.57%.

**Q.** Which activity score does the source give for `O=[N+]([O-])c1ccc(OP2(=O)COCCO2)cc1` (stereo not given) here?
**A.** Its activity score is inactive: 1.78%.

**Q.** For `CC(=O)NC(SC(=S)N(C)C)C(Cl)(Cl)Cl` (stereo not given), which activity score is on record?
**A.** Its activity score is inactive: -6.37%.

**Q.** For `O=[N+]([O-])c1ncn(CCn2cnc([N+](=O)[O-])n2)n1`, which activity score is on record?
**A.** The activity score was inactive: -0.593%.

**Q.** For `O=[N+]([O-])c1ccc(O)c(/C=N/Nc2ccc([N+](=O)[O-])cc2[N+](=O)[O-])c1`, which activity score is on record?
**A.** Its activity score is inactive: 17.3%.

**Q.** Which activity score does the source give for `O=[As](O)(c1ccccc1)c1ccc(O)cc1` here?
**A.** Its activity score is inactive: 14.6%.

**Q.** With `Cc1cc(-c2cccc3ccccc23)c(C)cn1.O=[N+]([O-])c1cc([N+](=O)[O-])c(O)c([N+](=O)[O-])c1` as the compound, how does the activity score read?
**A.** The activity score was inactive: 1.63%.

**Q.** Which activity score does the source give for `O=[N+]([O-])c1cc([N+](=O)[O-])c(NCC2CCS(=O)(=O)C2)c([N+](=O)[O-])c1` (stereo not given) here?
**A.** Its activity score is inactive: 7.92%.

**Q.** Which activity score does the source give for `C(Cc1nn[nH]n1)Cc1nn[nH]n1` here?
**A.** The activity score was inactive: 8.65%.

**Q.** Which activity score does the source give for `Nc1ccc([As](=O)(O)c2ccc([N+](=O)[O-])cc2)cc1` here?
**A.** Its activity score is inactive: -14.7%.

**Q.** Which activity score does the source give for `O=C(OC1CN2CCC1CC2)c1cccc(Cl)c1` (stereo not given) here?
**A.** The activity score was inactive: 14.4%.

**Q.** With `CP(=O)(Nc1ccc(SC(F)(F)F)cc1)Oc1ccc(F)cc1` (stereo not given) as the compound, how does the activity score read?
**A.** Its activity score is inactive: -4.17%.

**Q.** With `O=P(Nc1nccs1)(c1ccccc1)c1ccccc1` as the compound, how does the activity score read?
**A.** The activity score was inactive: 16.3%.

**Q.** With `CC(C)C(=O)NC(Sc1ccccc1)C(Cl)(Cl)Cl` (stereo not given) as the compound, how does the activity score read?
**A.** The activity score was inactive: -0.428%.

**Q.** With `CCOP(C)(=S)SCC(=O)NC(C)(CC)C(=O)O` (stereo not given) as the compound, how does the activity score read?
**A.** Its activity score is inactive: 20.6%.

**Q.** For `c1nnnn1CCn1cnnn1`, which activity score is on record?
**A.** The activity score was inactive: 24.1%.

**Q.** Which activity score does the source give for `CP(=O)(Nc1ccc2c(c1)OCCO2)Oc1ccccc1` (stereo not given) here?
**A.** The activity score was inactive: -2.39%.

**Q.** With `Cc1ccccc1NP(C)(=O)Nc1ccccc1C` as the compound, how does the activity score read?
**A.** Its activity score is inactive: -2.78%.
